Results taken from ChEMBL document CHEMBL4049398, “Microscale High-Throughput Experimentation as an Enabling Technology in Drug Discovery: Application in the Discovery of (Piperidinyl)pyridinyl-1H-benzimidazole Diacylglycerol Acyltransferase 1 Inhibitors” (J Med Chem, 2017).

Chains of the proteins cited; added tags and fusions are not shown. Lines headed by an entry give the natural chain unless they say otherwise; changes in a name come on top.
UniProt Q12809: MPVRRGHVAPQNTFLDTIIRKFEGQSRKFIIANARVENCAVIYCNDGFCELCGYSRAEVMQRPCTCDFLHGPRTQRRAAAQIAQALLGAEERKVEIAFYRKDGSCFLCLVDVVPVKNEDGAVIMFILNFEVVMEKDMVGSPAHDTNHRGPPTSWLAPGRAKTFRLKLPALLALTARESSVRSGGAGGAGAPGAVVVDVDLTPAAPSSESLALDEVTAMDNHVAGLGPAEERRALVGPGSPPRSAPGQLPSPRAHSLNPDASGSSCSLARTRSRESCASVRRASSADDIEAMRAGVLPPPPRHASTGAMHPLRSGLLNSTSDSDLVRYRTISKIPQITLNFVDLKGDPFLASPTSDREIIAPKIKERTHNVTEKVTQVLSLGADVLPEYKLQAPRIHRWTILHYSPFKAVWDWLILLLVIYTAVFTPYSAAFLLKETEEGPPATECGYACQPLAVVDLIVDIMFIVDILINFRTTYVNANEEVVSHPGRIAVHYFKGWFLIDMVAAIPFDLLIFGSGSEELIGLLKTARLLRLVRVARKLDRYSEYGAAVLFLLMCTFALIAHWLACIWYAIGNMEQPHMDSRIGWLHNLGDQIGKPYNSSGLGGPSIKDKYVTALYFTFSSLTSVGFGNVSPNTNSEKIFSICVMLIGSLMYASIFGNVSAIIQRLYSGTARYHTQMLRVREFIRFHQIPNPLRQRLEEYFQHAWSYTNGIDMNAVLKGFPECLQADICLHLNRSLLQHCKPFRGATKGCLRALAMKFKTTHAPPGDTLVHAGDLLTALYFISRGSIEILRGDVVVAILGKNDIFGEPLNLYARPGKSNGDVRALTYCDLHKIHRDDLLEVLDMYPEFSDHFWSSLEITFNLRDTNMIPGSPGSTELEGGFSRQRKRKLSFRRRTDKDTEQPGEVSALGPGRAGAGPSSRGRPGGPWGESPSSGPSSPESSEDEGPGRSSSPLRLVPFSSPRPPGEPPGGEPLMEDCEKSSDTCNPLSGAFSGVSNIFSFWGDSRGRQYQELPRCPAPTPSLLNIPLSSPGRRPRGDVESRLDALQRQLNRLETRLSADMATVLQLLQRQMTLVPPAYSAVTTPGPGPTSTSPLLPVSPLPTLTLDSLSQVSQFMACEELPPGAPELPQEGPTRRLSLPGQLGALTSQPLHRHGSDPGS

Molecular target: Voltage-gated inwardly rectifying potassium channel KCNH2 (Homo sapiens, UniProt Q12809)
Assay: Inhibition of MK499 binding to human ERG

SMILES | IC50 [µM]
O=C(O)C[C@@H]1COC2(CCN(c3ccc(-c4nc5cc(C(F)(F)F)ccc5[nH]4)cn3)CC2)C1 | 4.4
O=C(O)C[C@H]1COC2(CCN(c3ccc(-c4nc5cc(C(F)(F)F)ccc5[nH]4)cn3)CC2)C1 | 4.9
O=C(O)CC1COC2(CCN(c3ccc(-c4nc5cc(C(F)(F)F)ccc5[nH]4)cn3)CC2)C1 (racemic) | 19.5
